Assays:
NOP receptor [1] = details: cited from earlier work
mice [2] = details: cited from earlier work
mice [3] = details: blocking N/OFQ-induced bradycardia and hypotension; cited from earlier work
[4] = tested on: NOP receptor (mouse colon); details: cited from earlier work
NOP receptor [5] = details: cited from earlier work; remark: listed apart in the source
[6] = tested on: NOP receptor (mouse vas deferens); details: cited from earlier work
mice [7] = details: cited from earlier work; remark: listed apart in the source
CHO cells = test: DMR in wild type CHO cells; details: 1 μM, 37°C, pm ± sem, * p < 0.05 vs buffer (one-way ANOVA, Dunnett's)

C[C@H](NC(=O)CNC(=O)[C@@H](NC(=O)[C@H](Cc1ccccc1)NC(=O)CNC(=O)CNC[C@@H](N)Cc1ccccc1)[C@@H](C)O)C(=O)N[C@@H](CCCNC(=N)N)C(=O)N[C@@H](CCCCN)C(=O)N[C@@H](CO)C(=O)N[C@@H](C)C(=O)N[C@@H](CCCNC(=N)N)C(=O)N[C@@H](CCCCN)C(N)=O
efficacy vs N/OFQ, GTPγS binding (NOP receptor [1]): significantly lower efficacy than N/OFQ | NOP activity on locomotor activity (mice [2]): partial agonist | NOP activity in cardiovascular system (mice [3]): pure antagonist | NOP activity in mouse colon [4]: NOP full agonist | efficacy vs N/OFQ, NOP/G protein interaction (NOP receptor [5]): significantly lower efficacy than N/OFQ | NOP activity in mouse vas deferens [6]: NOP antagonist | NOP activity in tail withdrawal assay (mice [7]): full agonist | DMR response, CHO (CHO cells): 24±2 pm

Source: publication PMC6117024, “NOP receptor pharmacological profile – A dynamic mass redistribution study” (PLoS ONE, 2018)
